Laboratory results taken from patent US8906945B2 (priority 2009, dated 2014).

Columns and labels:
[1] = system: P. aeruginosa cells; conditions: listed as MBX 1641
[2] = system: CHO cells; assay: Inherent cytotoxicity of compounds to CHO cells in the absence of P. aeruginosa (LDH release); conditions: 25 μM

Row | Compound | effect on extent or rate of growth of P. aeruginosa cells [1] | cytotoxicity of the compound itself in the absence of P. aeruginosa cells [2]
1 | CC(Oc1ccc(Cl)cc1Cl)C(=O)NCc1ccc2c(c1)OCO2 (racemic) [Compound 1, N-(benzo[d][1,3]dioxol-5-ylmethyl)-2-(2,4-dichlorophenoxy)propanamide] | minimal effects | 
2 | CC(Oc1ccc(Cl)cc1Cl)C(=O)NCc1ccco1 (racemic) [compound 5685325, 2-(2,4-dichlorophenoxy)-N-(2-furylmethyl)propanamide] |  | about 8%
3 | CC(Oc1ccc(Cl)cc1Cl)C(=O)NCc1ccc(F)cc1 (racemic) [compound 6380194, 2-(2,4-dichlorophenoxy)-N-(4-fluorobenzyl)propanamide] |  | ~42%
